These results are taken from ChEMBL document CHEMBL1124889, “Alfred Burger award address. Bioactive alkaloids. 4. Results of recent investigations with colchicine and physostigmine” (J Med Chem, 1990).

Chains of the proteins cited; added tags and fusions are not shown. Lines headed by an entry give the natural chain unless they say otherwise; changes in a name come on top.
UniProt O42275: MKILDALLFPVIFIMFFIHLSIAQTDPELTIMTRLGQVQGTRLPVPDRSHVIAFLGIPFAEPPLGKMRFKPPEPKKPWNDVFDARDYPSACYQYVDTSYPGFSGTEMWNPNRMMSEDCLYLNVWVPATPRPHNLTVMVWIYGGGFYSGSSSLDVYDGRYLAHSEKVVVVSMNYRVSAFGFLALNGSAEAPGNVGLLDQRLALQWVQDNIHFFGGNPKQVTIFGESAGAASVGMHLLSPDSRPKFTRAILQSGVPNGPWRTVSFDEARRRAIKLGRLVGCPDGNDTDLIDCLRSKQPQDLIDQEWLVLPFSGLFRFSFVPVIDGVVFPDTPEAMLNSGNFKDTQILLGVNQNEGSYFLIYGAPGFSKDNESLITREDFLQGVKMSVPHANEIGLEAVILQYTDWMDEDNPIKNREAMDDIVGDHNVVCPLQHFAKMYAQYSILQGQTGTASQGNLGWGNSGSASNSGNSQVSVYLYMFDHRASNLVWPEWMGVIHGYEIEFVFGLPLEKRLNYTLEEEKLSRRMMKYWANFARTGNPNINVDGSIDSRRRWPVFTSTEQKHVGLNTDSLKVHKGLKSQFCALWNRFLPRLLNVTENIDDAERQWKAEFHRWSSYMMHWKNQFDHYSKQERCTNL

The assay has as its target Acetylcholinesterase (Electrophorus electricus, UniProt O42275). The assay can be described thus: Inhibitory activity against Acetylcholinesterase in electric eel.

On to `CNC(=O)Oc1ccc2c(c1)[C@]1(C)CCN[C@@H]1N2C`, for which inhibition was half-maximal at 57 nM (IC50).
